Experiments:
[1] = Solubility to solvents (Vertrel XF, n-hexane, ethanol); conditions: 25° C., visual observation after 1 day; for Solubility Fluorine-based solvent: Vertrel XF, 0.2 parts by mass per 100 parts; for Solubility Ethanol / Solubility n-Hexane: 0.5 parts by mass per 100 parts
[2] = Solubility to fluorine-based solvent (Vertrel XF), 1.0/0.5/0.1 parts by mass added; conditions: Vertrel XF [CF3(CHF)2CF2CF3], 25° C., ultrasonic waves 5 minutes, left 1 day, visual observation; 0.5 and 0.1 parts by mass per 100 parts

In the case of “nonafluorobutanesulfonic acid-1-octadecyl-2-heptadecylimidazolium [Comparative Example 6A]”, the “Solubility Fluorine-based solvent” value [1] is reported as “Less than 0.2% by mass”, the “Solubility Ethanol” value [1] is reported as at least 0.5% by mass and the “Solubility n-Hexane” value [1] is reported as under 0.5% by mass.

With “nonafluorobutanesulfonic acid-1-octadecylimidazolium [Comparative Example 1A]” the Fluorine-based solvent solubility [2] was “Less than 0.1% by % by mass”.

For “nonafluorobutanesulfonic acid-N,N,N-trimethyloctadecylammonium [Comparative Example 9A, reference compound]”, the “Solubility Fluorine-based solvent” value [1] was “Less than 0.2% by mass”, the “Solubility Ethanol” value [1] was at least 0.5% by mass and the “Solubility n-Hexane” value [1] was under 0.5% by mass.

— patent publication US20190051326A1, “Ionic Liquid, Lubricant, and Magnetic Recording Medium” (priority 2016, published 2019)
